Assay results taken from patent US10465009B2, “BCMA antigen binding proteins” (Amgen Inc., priority 2012, dated 2019).

Assay: Differential Scanning calorimetry (DSC) thermostability
Type: physicochemical
Settings: parent Fab region
Excerpt: Differential Scanning calorimetry (DSC) was used to compare the thermostability of parent and engineered antibodies. DSC is a thermodynamical tool for direct assessment of the heat energy uptake, which occurs in a sample within a regulated increase or decrease in temperature. DSC is commonly employed to assess the thermal and conformational stability of a protein. The melting temperature of a protein, or of individual domains, can be obtained from the DSC profile, and if the reaction is reversible the thermodynamic parameters of the unfolding can be determined. A protein is considered more thermostable when the Tm (transition temperature) is higher. When thermostability data are compared to other bioanalytical methods, like size exclusion chromatography (SEC), it has been observed that a correlation between greater thermostability (higher Tm) and decreased aggregation. Antibodies with a higher Tm and decreased aggregation formation have the potential for improved long-term stability thus potentially making better biotherapeutics.
DSC was carried out using a MicroCal™ VP-Capillary DSC system (GE Healthcare, Piscataway, N.J.) equipped with an auto-sampler. The temperature differences between the reference and sample cells are continuously measured, and calibrated to power units. For example, the full-length antibodies shown in TABLE 10 were diluted to 0.5 mg/mL in a buffered solution. The solution reference and protein samples were measured in a 135 μL cell from 20 to 110° C. at a heating rate of 60° C./hour. The pre-scan was set at 15 minutes while the filtering period was 10 seconds. Signal from the blank buffer solution was used for baseline subtraction. The data analysis was performed using MicroCal™ Origin 7 software. Heat capacity during protein melting was calculated by normalizing over protein concentration.

B1: 2A1: parental fully human anti-huBCMA mAb, Vh SEQ ID NO:214, Vl SEQ ID NO:248; heavy chain SEQ ID NO:287, light chain 288 (antibody)
heavy: EVQLVESGGGLVKPGRSLRLSCTASGFTFGDYALSWFRQAPGKGLEWVGVSRSKAYGGTTDYAASVKGRFTISRDDSKSFAYLQMNSLKTEDTAVYYCCSSGYSSGWTPFDYWGQGTLVTVSSASTKGPSVFPLAPSSKSTSGGTAALGCLVKDYFPEPVTVSWNSGALTSGVHTFPAVLQSSGLYSLSSVVTVPSSSLGTQTYICNVNHKPSNTKVDKKV[omitted - human IgG1 Fc]
light: QSVLTQPPSASGTPGQRVTISCSGSSSNIGSNTVNWYQQLPGTAPKLLIFNYHQRPSGVPDRFSGSKSGSSASLAISGLQSEDEADYYCAAWDDSLNGWVFGGGTELTVLGQPKAAPSVTLFPPSSEELQANKATLVCLISDFYPGAVTVAWKADSSPVKAGVETTTPSKQSNNKYAASSYLSLTPEQWKSHRSYSCQVTHEGSTVEKTVAPTECS
- Tm Fab: 66 °C
